This experiment concerns beta-arrestin1. Briefly: Beta-arrestin 1 levels in rat brain areas after chronic antidepressant treatment (immunoblot). The format is in vivo. The note with it: three weeks of treatment. The procedure: On the 22nd day, rats were decapitated, blood collected and brain regions immediately dissected. Tissue homogenization was carried out in a glass-teflon homogenizer with ice-cold buffer containing 20 mM Tris.Cl pH 7.4, 2 mM EDTA, 1 mM DTT and antiprotease cocktail (Sigma). After initial centrifugation at 800 g for 5 min, the supernatant was collected and further centrifuged at 48,000 g for 30 min using a Beckman Ti80 rotor. The resulting supernatant and pellet were separated: the supernatant fraction was collected and centrifuged at 120,000 g for 45 min and the supernatant obtained was used for all measurements; the pellet was resuspended in the homogenization buffer and the pellet fraction obtained was used for all measurements.
On the day of assay, cytosolic and/or membrane fraction were thawed. 10 μg total protein aliquots were taken for protein separation by SDS-(10%) polyacrylamide gel electrophoresis. The resulting proteins were transferred to nitrocellulose paper by use of electroblotting apparatus. Blots were blocked with 5% BSA for 1 hr in TBS containing 0.1% Tween-20 (TTBS) and incubated overnight with a monoclonal antibody to beta-arrestin1 (Transduction Labs, diluted 1:250). The immune bands were detected by subsequent incubation with anti-mouse IgG labeled with horseradishperoxidase using the Enhanced Chemiluminescence Western Blot Detection System (Amersham) followed by exposure to Kodak X-Omat film. […] Peak heights of immunoreactive bands presented as arbitrary absorbance units, were determined with a computer-assisted imaging system for semi-quantitative measurements. 10 μg rat cortical membranes run in each blot as a standard reference.
Beta-arrestin1 levels were measured in three rat brain areas: cortex, hippocampus and striatum.
On the technique in general: In western blotting, separated proteins are transferred to a membrane and probed.

In the case of `CNCCCN1c2ccccc2CCc2ccccc21` [desipramine], the “Cytosolic beta-arrestin-1 in rat cortex” value (rat cortex, cytosolic fraction, 10 mg/kg twice daily intragastrically, compared with control group) is given as 163.4%. For the same compound, the “Membrane beta-arrestin 1 in rat cortex” value (rat cortex, membrane fraction, 10 mg/kg twice daily intragastrically, compared with control group) turned out to be 146.2%. The “Cytosolic beta-arrestin-1 in rat hippocampus” value (rat hippocampus, cytosolic fraction, 10 mg/kg twice daily intragastrically, compared with control group) came out at 151.6%. Also, for the setting “rat hippocampus, membrane fraction, 10 mg/kg twice daily intragastrically, compared with control group”, the “Membrane beta-arrestin-1 in rat hippocampus” value worked out at 162.9%. Moreover, the “Beta-arrestin 1 levels in striatum” value (rat striatum) is given as “no alterations”.

The record behind these values is patent US7736621B2, “Methods for gauging the effect of a depression treatment by determining the levels of beta-arrestin 1 and G-protein coupled receptor kinase 2” (Hypatia Ltd., priority 2004, dated 2010).
